Test results: ChEMBL document CHEMBL1124268, “Approaches to protection against nerve agent poisoning. (Naphthylvinyl)pyridine derivatives as potential antidotes” (1988)

Amino acid sequences for entries named in this document (tags omitted). A change or cut given only in a name is not applied to a line headed by its entry.
UniProt P28329: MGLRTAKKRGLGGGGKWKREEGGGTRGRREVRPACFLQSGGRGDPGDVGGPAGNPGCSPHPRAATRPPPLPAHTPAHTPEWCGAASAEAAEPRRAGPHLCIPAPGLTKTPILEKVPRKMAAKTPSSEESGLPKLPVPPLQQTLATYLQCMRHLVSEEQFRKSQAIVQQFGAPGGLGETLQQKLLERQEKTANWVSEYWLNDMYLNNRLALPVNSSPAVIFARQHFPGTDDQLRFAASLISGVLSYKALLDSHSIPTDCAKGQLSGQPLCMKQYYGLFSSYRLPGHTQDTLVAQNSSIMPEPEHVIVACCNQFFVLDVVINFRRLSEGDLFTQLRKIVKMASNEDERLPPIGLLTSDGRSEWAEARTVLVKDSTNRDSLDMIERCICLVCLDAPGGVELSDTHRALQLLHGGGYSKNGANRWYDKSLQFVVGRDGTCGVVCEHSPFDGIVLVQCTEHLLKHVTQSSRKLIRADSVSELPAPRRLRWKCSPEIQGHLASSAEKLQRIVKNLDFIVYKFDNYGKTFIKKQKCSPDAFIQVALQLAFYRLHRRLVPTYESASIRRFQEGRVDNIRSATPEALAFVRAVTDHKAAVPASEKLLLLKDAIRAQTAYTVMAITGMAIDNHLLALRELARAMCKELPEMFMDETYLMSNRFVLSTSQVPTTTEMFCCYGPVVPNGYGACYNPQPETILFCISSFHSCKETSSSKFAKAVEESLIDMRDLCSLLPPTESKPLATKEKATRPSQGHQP

Each molecule was assayed against Choline O-acetyltransferase (Homo sapiens, UniProt P28329) (assay: Inhibition of choline acetyltransferase (CAT) enzyme). Conditions: read-out: I50.

In order of rising IC50:
1. C[n+]1ccc(/C=C/c2cccc3ccccc23)cc1  0.3 µM
2. C[n+]1ccc(C#Cc2cccc3ccccc23)cc1  1.1 µM
3. C[n+]1ccccc1/C=C/c1cccc2ccccc12  2.2 µM
4. OCC[n+]1ccc(/C=C/c2cccc3ccccc23)cc1  3 µM
5. CC(=O)Nc1cc(/C=C/c2cccc3ccccc23)cc[n+]1C  3.7 µM
6. CCCCCC[n+]1ccc(/C=C/c2cccc3ccccc23)cc1  4.2 µM
7. CN1CC=C(/C=C/c2cccc3ccccc23)CC1  4.3 µM
8. C[n+]1ccc(/C=C/c2ccc(Cl)c(Cl)c2)cc1  4.5 µM
9. C[n+]1ccc(/C=C/c2cccc3ccccc23)cc1N  5.3 µM
10. C[n+]1ccc(/C=C/c2ccccc2)cc1  12 µM
11. COc1ccc(/C=C/c2cc[n+](CCO)cc2)c2ccccc12  90 µM
